From PubChem BioAssay AID2221 (Broad Institute, 2009) come the findings set out here.

Sequences of proteins named here, by UniProt entry; tags and fusion partners are left off.
UniProt P9WHJ3, whole entry: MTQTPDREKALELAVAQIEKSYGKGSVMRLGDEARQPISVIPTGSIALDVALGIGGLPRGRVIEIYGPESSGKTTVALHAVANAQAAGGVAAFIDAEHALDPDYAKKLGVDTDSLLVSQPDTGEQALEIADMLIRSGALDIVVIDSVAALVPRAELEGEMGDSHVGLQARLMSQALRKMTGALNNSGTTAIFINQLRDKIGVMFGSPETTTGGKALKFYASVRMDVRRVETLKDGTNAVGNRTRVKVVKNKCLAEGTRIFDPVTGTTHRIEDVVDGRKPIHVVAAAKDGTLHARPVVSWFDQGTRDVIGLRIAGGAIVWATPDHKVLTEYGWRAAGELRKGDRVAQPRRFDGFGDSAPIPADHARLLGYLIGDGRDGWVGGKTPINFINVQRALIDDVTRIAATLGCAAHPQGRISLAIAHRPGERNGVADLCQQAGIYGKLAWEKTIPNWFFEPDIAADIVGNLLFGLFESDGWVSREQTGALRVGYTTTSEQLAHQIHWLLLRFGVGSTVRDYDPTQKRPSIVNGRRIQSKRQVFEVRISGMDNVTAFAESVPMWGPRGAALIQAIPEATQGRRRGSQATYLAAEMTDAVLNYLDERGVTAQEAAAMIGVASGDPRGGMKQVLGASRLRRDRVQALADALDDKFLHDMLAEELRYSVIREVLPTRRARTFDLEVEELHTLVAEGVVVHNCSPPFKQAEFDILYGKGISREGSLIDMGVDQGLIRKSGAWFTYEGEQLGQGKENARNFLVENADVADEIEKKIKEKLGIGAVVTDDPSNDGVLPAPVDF

The list shows a part of the results, in another mix than the full data. Some results for these compounds are left out of this collection, so the calls shown say nothing about other tests. Activity calls are given as the source filed them. Cut-off read from the data, not from the text of the source: active = inhibition above about 30%; inconclusive = no clear call, values can overlap the other calls; inactive = below that.

This assay has as its target Protein RecA (Mycobacterium tuberculosis (strain ATCC 25618 / H37Rv)) (UniProt P9WHJ3). Nature of the assay: Mtb RecA intein splicing inhibitors, primary screen, biochemical, fluorescence, HTS (AID 2221).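 Note: 0% = vehicle wells and 100% = reference inhibitor control wells.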 To be noted: cell-free RecA intein splicing, active compounds read high, concentration not given here.
As usually defined, the inhibition is the drop in the measured response relative to a control, in per cent. Regarding `CN(C)c1cccc(C(=O)NCC2(N(C)C)CCCCC2)c1`, the inhibition is inactive: -2.6%.

As for `CC(C)Oc1ccc(C(=O)NCC2(N(C)C)CCCCC2)cc1`, the inhibition was inactive: -1.91%.

As for `COc1ccc(Br)c(C(=O)NCC2(N3CCCCC3)CCCCC2)c1`, the inhibition was inactive: 1.25%.

For `O=C(OC1CN2CCC1CC2)C(CO)(c1ccccc1)c1ccccc1` (stereo not drawn), the inhibition is inactive: -0.0365%.

With `O=C(NCC1(N2CCCCC2)CCCCC1)c1cccc(Cl)c1`, the inhibition was inactive: 2.08%.

With `COc1ccc(Cl)cc1C(=O)NCC1(N(C)C)CCCCC1`, the inhibition was inactive: 0.0281%.

Turning to `COc1cccc(C(=O)NCC2(N3CCCCC3)CCCCC2)c1`, the inhibition is inactive: -0.969%.

For `COc1cc(C(=O)NCC2(N(C)C)CCCCC2)c([N+](=O)[O-])cc1OC`, the inhibition is inactive: -0.241%.

As for `CN(C)C1(CNC(=O)c2ccc(Br)cc2)CCCCC1`, the inhibition is inactive: -0.502%.

Take `O=C(NCC1(N2CCCCC2)CCCCC1)c1cccc(Br)c1`: the inhibition is inactive: 0.543%.

As for `Cc1cc(C(=O)NCC2(N3CCCCC3)CCCCC2)ccc1[N+](=O)[O-]`, the inhibition is inactive: -0.466%.

Regarding `CCN1CCCC(OC(=O)C2(O)c3ccccc3C=Cc3ccccc32)C1` (stereo not drawn), the inhibition is inactive: -6.34%.

As for `COc1ccc(C(=O)NCC2(N(C)C)CCCCC2)cc1`, the inhibition was inactive: -1.38%.

Consider `O=C(NCC1(N2CCCCC2)CCCCC1)c1cc(F)c(F)cc1Cl`, for which the inhibition is inactive: 0.437%.

With `C=CCN1CCN(CCOC(=O)C(O)(c2ccccc2)c2ccccc2)CC1`, the inhibition is inactive: -0.408%.

Consider `CN(C)C1CCCC1OC(=O)C(O)(c1ccccc1)c1ccccc1` (stereo not drawn), for which the inhibition was inactive: -1.3%.

As to `CN(C)c1ccc(C(=O)NCC2(N(C)C)CCCCC2)cc1`, the inhibition is inactive: -1.69%.

Consider `Cc1ccccc1C(=O)NCC1(N2CCCCC2)CCCCC1`, for which the inhibition is inactive: 3.09%.

Take `CC(C)N1C(=O)CC2(CCN(CCOC(=O)C(O)(c3ccccc3)c3ccccc3)CC2)C1=O`: the inhibition was inactive: 0.492%.

Turning to `COc1cc(SC)ccc1C(=O)NCC1(N(C)C)CCCCC1`, the inhibition was inactive: -1.48%.

With `CCN(CC)CC(C)C(C)OC(=O)C(O)(c1ccccc1)c1ccccc1` (stereo not drawn), the inhibition was inactive: -0.532%.

`CN1[C@@H]2CC[C@H]1CC(OC(=O)C(O)(c1ccccc1)c1ccccc1)C2` (stereo partly drawn): the inhibition was inactive: -0.157%.

Take `O=C(NCC1(N2CCCCC2)CCCCC1)c1cc([N+](=O)[O-])ccc1Cl`: the inhibition was inactive: 2.14%.
